Laboratory results reported in patent US11897863B2, “Indazole amine derivative, preparation method therefor and medical use thereof” (ZHEJIANG HISUN PHARMACEUTICAL CO., LTD., priority 2018, dated 2024).

Experiment: Solubility test in phosphate buffer solution (PBS, pH7.4)
Format: physicochemical
Conditions: PBS pH 7.4, room temperature, LC-UV
Method: 1.5 mg of the test compound was taken, and PBS was added thereto to prepare the test solution with theoretical concentration of 2 mg·mL^−1. The test solution was ultrasonicated for 10 min, and rotated on a rotating tray at room temperature for at least 8 h. After the rotation treatment, the test solution was ultrasonicated for 10 min and centrifuged at 13000 rpm for 15 min. 100 μL of supernatant was transferred to a 0.6 mL new tube for spinning and rinsing for 5 min. 500 μL of supernatant was transferred into the above rinsed 0.6 mL tube. Then the tube was centrifuged at 13000 rpm for 15 min, and the supernatant was taken (or diluted) for analysis by LC-UV. Sample concentration was quantified by standard curve fitting (3 points).

CN(C)CCn1cc2cc(NC(=O)c3cccc(C(F)(F)F)n3)c(C(C)(C)O)cc2n1 [Compound 1, N-(2-(2-(dimethylamino)ethyl)-6-(2-hydroxypropan-2-yl)-2H-indazol-5-yl)-6-(trifluoromethyl)pyridin-2-carboxamide]
Solubility in phosphate buffer solution (PBS, pH 7.4): 602 uM
